Experimental data reported in patent EP0920324B1, “PURE BIOLOGICALLY ACTIVE COLISTIN, ITS COMPONENTS AND A COLISTIN FORMULATION FOR TREATMENT OF PULMONARY INFECTIONS” (PATHOGENESIS CORPORATION, priority 1996, dated 1998).

Test: Solution pH monitored over time after dissolution
Type: physicochemical
Conditions: freshly dissolved in water at 10.0, 15.0 and 20.0 mg/ml
Experimental: Acidic stability of the colimycin solution was determined according to Example 11. Briefly, colimycin (405 mg) was freshly dissolved in water to achieve 10.0 mg/ml, 15.0 mg/ml, and 20.0 mg/ml solutions. These values correspond to concentrations of 3.7 mg/ml, 5.6 mg/ml and 7.4 mg/ml colistin base equivalent. Solution pH was monitored continuously at various times from 1 minute to 180 minutes and pH values and times were recorded.
Determination of component IV stability at physiologic pH was made by dissolving purified colistin component IV sulfate or hydrochloride at a concentration of 20 mg/ml in sterile water containing 120 mM NaCl. The solution was mixed and pH was monitored. A 10 N NaOH solution was used to adjust the solution pH to 6.95-7.00. Results are seen in Figure 16.
The pH of freshly dissolved colimycin was determined by weighing a freshly opened vial of Coly-Mycin M Parenteral, Parke-Davis, lot# 01966P, containing 405 mg into 20 ml glass screwcap scintillation vials and adding an appropriate volume of sterile irrigation water to achieve 10.0 mg/ml, 15.0 mg/ml, and 20.0 mg/ml solutions. […] Solution pH was then monitored continuously using a Beckman Phi-10 pH meter fitted with a Beckman Futura Plus combination electrode calibrated at pH 4.0 and 7.0 as per manufacturer's instructions prior to use. At various times from 1 minute to 180 minutes, pH values and times were recorded.

colimycin
starting pH of solution: 6.80
